Apparent affinities of Ab-14 variants for a coronavirus HR2 peptide

Binding partner: SARS-CoV-2 spike HR2 peptide, sequence PDVDLGDISGINAS.

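The starting antibody came from a phage panning campaign against this peptide. These sequences belong to a second round, designed from the earlier measurements on random variants of the parent. Their group label is 14L_GP_Gibbs (GP: Gaussian process model; Gibbs: Gibbs sampling; a sequence that several methods proposed may carry one label only). In AlphaSeq, yeast of one mating type display the scFv and yeast of the other type display the target. Mating (16 h, 30 °C) was followed by selection of diploids and sequencing of their barcodes. Read counts were normalised to the haploid input and turned into Kd by a linear fit to BCL2-family pairs of known affinity, for each replicate. The assay was run in six technical replicates.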

The variants keep the heavy chain, the linker and the frameworks of Ab-14 (scFv order VH, three GGGGS repeats, VL).
VH: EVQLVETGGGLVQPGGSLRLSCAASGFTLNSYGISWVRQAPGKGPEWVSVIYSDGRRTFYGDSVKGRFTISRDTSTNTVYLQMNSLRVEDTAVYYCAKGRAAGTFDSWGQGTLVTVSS
VL: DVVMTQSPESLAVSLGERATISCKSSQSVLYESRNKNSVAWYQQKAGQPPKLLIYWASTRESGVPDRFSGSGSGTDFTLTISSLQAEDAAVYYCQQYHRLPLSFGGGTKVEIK

Substitutions are numbered in sequence along the VL above, starting at 1 (not Kabat).
Scale: log10 of Kd in nM, estimated from mating counts; low values are strong binders.
Averages over replicates are reported, and they cover detected replicates only.
An entry "n.d." has no value in the source: the pair was not observed among the diploids in that replicate. This suggests poor binding but is not conclusive.
Of ten entries with the parent sequence, four were seen in most replicates (averages 0.34 to 2.37), three in one and three in none, so single entries are noisy.
The range of this assay differs from that of the first round, and the authors advise against merging the two.
Empty control strains, which show no peptide, gave a signal in 4% of pairings with all light chain designs; the median was 2.64 and 95% of these signals were weaker than 1.59. No background was subtracted. The control count says in how many pairings with the empty strains this scFv gave a signal, with their mean in brackets.
The authors averaged sequences with at least three values out of six and counted those with two or fewer as poor binders.

changes	log10 Kd, replicates	mean log10 Kd (nM)	control signals
S25L S26Q Q27W S28L E32S W56N	1.38 / 0.94 / 0.71 / 0.95 / 0.90 / 1.29	1.03	0/18
S25I S26E V29M S33D W56N T59Q Q96A	0.62 / 0.61 / 0.34 / 0.27 / 1.01 / 1.00	0.64	1/18 (2.19)
S25L S26Y L30M Y31L K36V W56S T59Q S62L	-0.05 / -0.14 / 0.00 / -0.21 / -0.21 / 0.19	-0.07	0/18
S26A Q27F V29D Y31N K36F W56D	0.01 / -0.08 / -0.05 / -0.28 / -0.12 / 0.03	-0.08	1/18 (2.13)
S25Y Q27G S33D N35M K36V W56N T59Q S62E	0.46 / 0.49 / 0.30 / 0.66 / 0.27 / 0.48	0.44	1/18 (1.88)
Q27G L30Q S33D N35M K36V W56N T59Q S62E	1.49 / 1.39 / 1.37 / 1.83 / 1.21 / 1.53	1.47	3/18 (3.17)
S25L V29M L30E W56H S62H S103M	0.46 / 0.24 / 0.07 / 0.10 / -0.02 / 0.18	0.17	0/18
K24F S25M V29W Y31M S33G K36D W56S S62D	0.08 / 0.27 / 0.18 / 0.27 / 0.09 / 0.17	0.18	0/18
S25Y Q27G V29E Y31G S33Q K36A W56N S62E	0.58 / 0.14 / 0.55 / -0.14 / 0.08 / 0.24	0.24	0/18
S25L S26Q V29W L30W W56S T59Q S62V	1.09 / 0.71 / 0.35 / 0.35 / 1.12 / 0.97	0.76	0/18
K24T S25L S26Q V29W L30E E32G W56N T59Q S62D	0.01 / -0.29 / -0.06 / -0.11 / -0.34 / 0.04	-0.12	1/18 (5.23)
S25L Q27C V29M L30E W56N S62E S103V	-0.18 / -0.15 / -0.32 / -0.55 / -0.30 / -0.28	-0.30	0/18
Q27G L30M Y31M E32L W56E S58T	0.85 / 0.70 / 0.78 / 1.04 / 0.95 / 0.97	0.88	2/18 (3.55)
S25Y V29Q S33D N35M K36V W56N T59Q	-0.19 / -0.06 / 0.19 / 0.18 / 0.03 / 0.40	0.09	1/18 (2.58)
S25V S26E S28L S38A W56Q A57G S103H	0.24 / 0.24 / 0.39 / 0.45 / 0.42 / 0.17	0.32	2/18 (2.49)
S25V Q27E V29E K36S W56N T59Y	0.07 / -0.02 / -0.23 / -0.32 / -0.14 / -0.09	-0.12	1/18 (2.49)
S25L Q27M S28L V29W Y31G E32L K36H W56S	0.79 / 0.47 / 0.80 / 0.73 / 0.95 / 0.71	0.74	1/18 (2.88)
S25L S28Q V29Q W56N T59L E61L Q96C	0.49 / 0.44 / 0.66 / 0.60 / 0.51 / 0.44	0.53	0/18
S25L Q27W S28L V29H L30W E32W W56E S62Q	1.62 / 1.16 / n.d. / 1.18 / 1.09 / 1.64	1.34	1/18 (2.25)
S25L S26Q Q27S S28L V29W W56N E61Y	0.08 / 0.07 / 0.39 / 0.00 / 0.15 / 0.37	0.18	0/18
S25L S26H V29W K36I W56N T59Q E61C	0.08 / -0.14 / -0.38 / -0.05 / 0.11 / -0.07	-0.08	0/18
S25V S26M V29M K36Q W56H S62Q S103Q	0.18 / 0.10 / -0.13 / 0.04 / 0.12 / 0.27	0.10	0/18
S25L S28G V29W N35E K36C S38Q W56N T59Q S62E	0.57 / 0.38 / 0.24 / 0.18 / 0.24 / 0.41	0.34	3/18 (3.30)
S25M S26Q Q27A V29Q L30G W56Q T59K	0.19 / 0.04 / 0.02 / -0.12 / -0.01 / 0.14	0.04	0/18
S25L S26Q L30G N35L K36A W56N E61L S62E	0.00 / 0.15 / 0.16 / -0.32 / 0.01 / 0.49	0.08	0/18
S25W V29W Y31M R34M K36S W56H T59Q	0.24 / 0.17 / 0.23 / -0.03 / 0.34 / 0.18	0.19	0/18
S25L S26Q V29K L30E E32L N35W W56H T59V S62V	1.41 / 1.31 / 2.39 / 2.45 / 1.98 / 1.87	1.90	0/18
K24I S25V V29M Y31I W56N S62H	0.11 / 0.06 / -0.07 / -0.08 / -0.03 / -0.01	0.00	2/18 (3.17)
S25I L30E E32Q S33Q K36P W56S E61L	-0.33 / -0.45 / -0.46 / -0.60 / -0.42 / -0.24	-0.42	1/18 (3.05)
S25L S26M Q27G V29M L30E W56E	0.46 / 0.58 / 0.55 / 0.46 / 0.13 / 0.64	0.47	0/18
S25L S26M V29D N35M K36Q S38N W56D E61M S62E	0.17 / -0.26 / -0.18 / -0.18 / -0.15 / -0.12	-0.12	0/18

The first 5 entries again:

| changes | log10 Kd, replicates | mean log10 Kd (nM) | control signals |
|---|---|---|---|
| S25L S26Q Q27W S28L E32S W56N | 1.38 / 0.94 / 0.71 / 0.95 / 0.90 / 1.29 | 1.03 | 0/18 |
| S25I S26E V29M S33D W56N T59Q Q96A | 0.62 / 0.61 / 0.34 / 0.27 / 1.01 / 1.00 | 0.64 | 1/18 (2.19) |
| S25L S26Y L30M Y31L K36V W56S T59Q S62L | -0.05 / -0.14 / 0.00 / -0.21 / -0.21 / 0.19 | -0.07 | 0/18 |
| S26A Q27F V29D Y31N K36F W56D | 0.01 / -0.08 / -0.05 / -0.28 / -0.12 / 0.03 | -0.08 | 1/18 (2.13) |
| S25Y Q27G S33D N35M K36V W56N T59Q S62E | 0.46 / 0.49 / 0.30 / 0.66 / 0.27 / 0.48 | 0.44 | 1/18 (1.88) |

From the AlphaSeq antibody data of Li et al. 2023 (doi:10.1038/s41467-023-39022-2), copy in the FLAb collection.